# Antibody variant affinities, Ab-14 heavy chain, assay B

Binding partner: SARS-CoV-2 spike HR2 peptide, sequence PDVDLGDISGINAS.

Parent: Ab-14, a human scFv built as VH, three GGGGS repeats, VL. Only the CDRs of the heavy chain vary.
VH: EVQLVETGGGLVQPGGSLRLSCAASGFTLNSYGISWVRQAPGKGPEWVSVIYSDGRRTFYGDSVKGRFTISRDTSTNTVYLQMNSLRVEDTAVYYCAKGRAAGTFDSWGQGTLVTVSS
VL: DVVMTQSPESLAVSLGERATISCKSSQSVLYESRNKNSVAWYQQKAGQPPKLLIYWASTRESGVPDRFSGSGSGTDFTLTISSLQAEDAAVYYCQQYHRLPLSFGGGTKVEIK

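Phage display of a naive human antibody library on the peptide gave the parent. This is the validation round: designs drawn from the data on random variants, tested in the same kind of assay. Their group label is 14H_En_Gibbs (En: ensemble of fine-tuned language models; Gibbs: Gibbs sampling). The assay is AlphaSeq: two haploid yeast populations carry antibody and antigen on their surface. The frequency of each diploid, read from paired DNA barcodes, reflects how well the two displayed proteins bind. Read counts were normalised to the haploid input and turned into Kd by a linear fit to BCL2-family pairs of known affinity, for each replicate. Mating was done six times.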

Variants are written as CDR1, CDR2 and CDR3 of the heavy chain (limits as in the source). Parent: GFTLNSYGIS, VIYSDGRRTFYGDSVK, GRAAGTFDS.
Numbers give log10(Kd / nM), so 0 is 1 nM and 3 is 1 µM. Smaller is tighter.
A pair that was not seen in that replicate is written "nd"; this usually means weak binding, but a binder can also be missed.
As a blank, each scFv also met three strains without target: over all heavy chain designs, 1% of these pairings were detected, typically at 2.08 and seldom below 0.84. The control count says in how many pairings with the empty strains this scFv gave a signal, with their mean in brackets.

| # | CDR-H1 | CDR-H2 | CDR-H3 | log10 Kd, replicates | empty controls |
|---|---|---|---|---|---|
| 1 | GFDLNEYGVS | VIYADGFRTSYTDSVK | GAVVDLSMA | nd / nd / nd / nd / nd / nd | 0 of 18 |
| 2 | GFDLNEYGVS | VIYADGMRSSYQDKVK | GSNVSLFDV | nd / nd / nd / nd / nd / nd | 1 of 18 (2.28) |
| 3 | GFDIEEYGIS | VIYADGERTSYSNAVK | GNMAGTFLF | 0.15 / 0.36 / 0.79 / 0.00 / 0.00 / 0.07 | 1 of 18 (2.96) |
| 4 | GFDIEEYGIS | VIYADGVRAMYASNFK | GKIAGTGLL | nd / nd / nd / nd / nd / nd | 0 of 18 |
| 5 | GFDLEEYGIS | VIYADGSRTSYQESVK | GLVGGMLDM | nd / nd / nd / nd / nd / nd | 0 of 18 |
| 6 | GEDLEEYGIS | VIYADGMRQYYANSVK | GTSNDFDDL | nd / nd / nd / nd / nd / nd | 0 of 18 |
| 7 | GKSLDEYGVS | VIYADGVRQSYADDVK | GGIAGTFLY | nd / nd / 2.60 / nd / 2.34 / nd | 1 of 18 (2.33) |
| 8 | GFDLDEYGIS | VIYADGIRQYYVDNVK | GLLAGMTIT | nd / nd / 4.20 / nd / nd / nd | 1 of 18 (1.96) |
| 9 | GFDLEEYGVS | VIYADGIRFAYAQDFK | GQAAGAFDL | nd / nd / nd / nd / nd / nd | 0 of 18 |
| 10 | GKKLDEYGIS | VIYADGKRKFYSNSVK | GGMAGGLTV | nd / nd / nd / nd / nd / nd | 0 of 18 |
| 11 | GFSIDEYGIS | VIYADGARASYAPKVK | GQEAGDLIE | nd / 1.42 / nd / nd / 2.18 / 2.21 | 0 of 18 |
| 12 | GFDLQDYGIS | VIYADGVRTQYVNNVK | GKWGATLSV | nd / nd / nd / nd / nd / nd | 0 of 18 |
| 13 | GFVLSEYGIS | VIYADGNRTFYAPNVK | GQFNDVLNM | nd / nd / nd / nd / nd / nd | 1 of 18 (2.27) |
| 14 | GNNLDEYGIS | VIYADGQRSAYAQDVK | GETGDNAFV | nd / nd / nd / nd / nd / nd | 0 of 18 |
| 15 | GYDLNEYGIS | VIYADGQRTSYVQSVK | GAGDITGLV | nd / nd / nd / 3.61 / 4.11 / nd | 1 of 18 (2.80) |
| 16 | GFDLKEQGIS | VIYADGMRTFYTDKVK | GQNSNGFKM | nd / nd / nd / nd / nd / nd | 0 of 18 |
| 17 | GENLDEYGIS | VIYADGVREAYANKVK | GEQGSFFIT | nd / nd / nd / nd / nd / nd | 0 of 18 |
| 18 | GFDLEEYGIS | VIYADGKRVAYQDAVK | GKHGGMFMV | 1.50 / nd / 1.84 / 2.36 / 3.41 / 2.94 | 0 of 18 |
| 19 | GNNLNEYGIS | VIYADGQRTSYASDVK | GDIRGSFDS | nd / nd / 1.99 / nd / nd / 1.87 | 2 of 18 (1.74) |
| 20 | GFVLDEYGIS | VIYADGKRQVYQDKVK | GENTGNFDT | 1.57 / 1.24 / 2.10 / 2.66 / nd / 2.01 | 0 of 18 |
| 21 | GFNLDEYGIS | VIYADGVRTAYVDKVK | GFGQVLSLI | nd / nd / nd / nd / nd / nd | 0 of 18 |
| 22 | GFDLEEYGVS | VIYADGMRSQYIDAVK | GIIVDNVIT | nd / nd / nd / nd / nd / nd | 0 of 18 |
| 23 | GFNLDEFGIS | VIYADGNRTFYLDSFK | GENVGTVDI | nd / nd / nd / nd / nd / nd | 1 of 18 (2.57) |
| 24 | GFDLNEYGIS | VIYADGVRVAYQNQVK | GNIDGSFTF | nd / nd / nd / nd / nd / nd | 0 of 18 |
| 25 | GFSLDEYGIS | VIYADGVRRSYNDNVK | GFNGEVSIV | nd / nd / nd / nd / nd / nd | 0 of 18 |
| 26 | GFSLDEYGVS | VIYADGLRTQYTNDVK | GLESFAFKM | nd / nd / nd / nd / nd / nd | 0 of 18 |
| 27 | GFGLDEYGIS | VIYADGMRAQYATNVK | GYQAGVFST | nd / nd / nd / nd / nd / nd | 0 of 18 |
| 28 | GFDIMEYGVS | VIYADGVRTAYTQDVK | GENLDSYVD | 1.27 / 1.65 / 1.83 / 2.20 / 1.42 / 1.64 | 0 of 18 |
| 29 | GFDLNEYGIS | VIYADGKRSYATDSVK | GGYNIGASV | nd / nd / nd / nd / nd / 2.14 | 0 of 18 |
| 30 | GIDMQEYGIS | VIYADGLRAAYSDNFK | GVLGGTFDM | nd / nd / 1.04 / 1.44 / 0.46 / 2.26 | 1 of 18 (1.52) |
| 31 | GFQLDEYGIS | VIYADGLRQEYAQKVK | GYNSFDLND | nd / nd / nd / nd / nd / nd | 0 of 18 |
| 32 | GFSFDEYGIS | VIYADGKRSFYANTVK | GNKDMAFDI | nd / nd / nd / nd / 3.49 / nd | 1 of 18 (1.92) |
| 33 | GFDLGEYGIS | VIYADGRRKGYSDSVK | GINSINVTD | nd / nd / nd / nd / nd / nd | 0 of 18 |
| 34 | GFNLEEYGIS | VIYADGMRTNYADKVK | GGLDVQEGY | nd / nd / nd / nd / nd / nd | 0 of 18 |
| 35 | GFDLEEYGIS | VIYADGERVNYTEAVK | GQFSGVKMD | nd / nd / nd / nd / nd / nd | 0 of 18 |
| 36 | GFNLEEYGIS | VIYADGRRQFYVDTVK | GSDDGLNAM | nd / nd / nd / nd / nd / nd | 0 of 18 |
| 37 | GFSLEEYGIS | VIYADGVRRSYSDNVK | GFNGEVSIV | nd / nd / nd / nd / nd / nd | 1 of 18 (1.77) |
| 38 | GFNLEDYGIS | VIYADGHRASMVESVK | GHLAGTFFE | nd / nd / nd / nd / nd / nd | 0 of 18 |
| 39 | GFDINEYGIS | VIYADGKRMAYANKVK | GLMAGTVID | nd / nd / nd / 2.50 / nd / nd | 0 of 18 |
| 40 | GFDLDEYGIS | VIYADGIRSVYHDSVK | GTGGGTIEA | nd / nd / nd / nd / nd / nd | 0 of 18 |

The authors averaged sequences with at least three values out of six and counted those with two or fewer as poor binders.
Values of this round are not directly comparable with the first-round values of the same sequences.

The measurements come from Li et al. 2023 (doi:10.1038/s41467-023-39022-2) through the FLAb antibody collection.